{"source": "PubChem BioAssay AID878", "about": "(University of Pittsburgh Molecular Library Screening Center, 2007)", "note": "The list shows a part of the results, in another mix than the full data. Calls of active or inactive are those of the source.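 The calls were made as follows: active = activation of at least 50% relative to the plate's high and low controls in the primary single-dose screen; inactive = activation below 50%.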"}
{"test": "compounds producing H2O2 with reducing agent – biochemical, NIH compound library profiling, artefact control for MLSCN library redox annotation, primary screen (AID 878);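 also: compound incubated with DTT at 0.8 mM final as the reducing agent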", "conditions": "DTT-dependent redox cycling H2O2, phenol red/HRP absorbance; at 10 µM; hits give high values; 100% = 100 µM peroxide control, 0% = buffer"}
{"smiles": "COc1ccccc1OP(=O)(Nc1ccc(C)cn1)Oc1ccccc1OC", "activation": "inactive: -0.29%"}
{"smiles": "CN1CCCC(OC(=O)C(c2ccccc2)c2ccccc2)C1", "note": "(centres undefined)", "activation": "inactive: -4.24%"}
{"smiles": "Clc1ccc(Cl)c(NC2=NCC(CBr)S2)c1", "note": "(centres undefined)", "activation": "inactive: 0.96%"}
{"smiles": "NC(=O)c1cc([N+](=O)[O-])cc([N+](=O)[O-])c1N", "activation": "inactive: -0.36%"}
{"smiles": "Cc1ccc(N/C(=N/P(=O)(N2CCOCC2)N2CCOCC2)N2CCOCC2)cc1", "activation": "inactive: -0.28%"}
{"smiles": "CC(C)CC(=O)NC(Sc1ccc(Cl)cc1)C(Cl)(Cl)Cl", "note": "(centres undefined)", "activation": "inactive: 2.05%"}
{"smiles": "Oc1ccccc1CNc1ccccn1", "activation": "inactive: 0.08%"}
{"smiles": "O=C(NC(Sc1ccncn1)C(Cl)(Cl)Cl)c1ccccc1", "note": "(centres undefined)", "activation": "inactive: -0.17%"}
{"smiles": "Cc1c2non([O-])c-2c(C)[n+](=O)[n+]1[O-]", "activation": "inactive: -0.71%"}
{"smiles": "Cc1cc(SC(NC(=O)c2ccc(F)cc2)C(Cl)(Cl)Cl)ncn1", "note": "(centres undefined)", "activation": "inactive: 0.41%"}
{"smiles": "CCOP(=O)(Nc1ccccc1)OCC", "activation": "inactive: -11%"}
{"smiles": "CCN(N=Nc1nonc1N)c1nonc1N", "activation": "inactive: -0.13%"}
{"smiles": "O=[N+]([O-])c1ncn(CCn2ncnc2[N+](=O)[O-])n1", "activation": "inactive: -0.38%"}
{"smiles": "O=[N+]([O-])c1cccc2n[nH]nc12", "activation": "inactive: -0.28%"}
{"smiles": "CC(=O)N1C2C3N(C(C)=O)C1C1N(C(C)=O)C(C(N1C(C)=O)N3C(C)=O)N2C(C)=O", "activation": "inactive: 8.68%"}
{"smiles": "Cc1ccc(NP(=O)(Oc2ccccc2)Oc2ccccc2)nc1", "activation": "inactive: -1.98%"}
{"smiles": "CCc1nc2c(n1)c1c(non1O)c1c2no[n+]1[O-]", "activation": "inactive: 0.16%"}
{"smiles": "O=[N+]([O-])c1cc([N+](=O)[O-])c(CCNc2ccccc2)c([N+](=O)[O-])c1", "activation": "inactive: -0.99%"}
{"smiles": "COc1ccc(C2=NCC(CBr)S2)cc1", "note": "(centres undefined)", "activation": "inactive: 9.98%"}
{"smiles": "CC(C)=N/N=C(\\N)N[N+](=O)[O-]", "activation": "inactive: -0.33%"}
{"smiles": "CN(C)C(=O)OCCc1n(C)cc[n+]1C", "activation": "inactive: -0.07%"}
{"smiles": "CC1CCN(C(=O)Oc2c(Cl)cc(Cl)c3cccnc23)CC1", "activation": "inactive: 0.97%"}
{"smiles": "CCN(/C(=N/P(=O)(N1CCOCC1)N1CCOCC1)N1CCOCC1)c1ccc(OC)cc1", "activation": "inactive: 0.35%"}
{"smiles": "c1nnnn1CCn1cnnn1", "activation": "inactive: -0.41%"}
{"smiles": "CC(C)C(=O)NC(Sc1ccccc1)C(Cl)(Cl)Cl", "note": "(centres undefined)", "activation": "inactive: 0.43%"}
{"smiles": "O=P(Nc1nccs1)(c1ccccc1)c1ccccc1", "activation": "inactive: -0.06%"}
{"smiles": "O=P(Nc1ccccn1)(c1ccc(Br)cc1)c1ccc(Br)cc1", "activation": "inactive: 0.35%"}
{"smiles": "C(Cc1nn[nH]n1)Cc1nn[nH]n1", "activation": "inactive: -0.21%"}
{"smiles": "O=C(OC1CN2CCC1CC2)c1cccc(Cl)c1", "note": "(centres undefined)", "activation": "inactive: -1.7%"}
{"smiles": "CC(=O)NC(SC(=S)N(C)C)C(Cl)(Cl)Cl", "note": "(centres undefined)", "activation": "inactive: -0.01%"}
{"smiles": "CCNC(=S)/N=C(\\N)N[N+](=O)[O-]", "activation": "inactive: -0.13%"}
{"smiles": "O=C(NC1CCS(=O)(=O)C1)NP(=S)(Oc1ccccc1)Oc1ccccc1", "note": "(centres undefined)", "activation": "inactive: 0.01%"}
{"smiles": "c1ccc(-c2nn[nH]n2)c(-c2nn[nH]n2)c1", "activation": "inactive: -1.2%"}
{"smiles": "CCOC(=O)NC(Sc1ccccc1)C(Cl)(Cl)Cl", "note": "(centres undefined)", "activation": "inactive: -4.95%"}
{"smiles": "O=c1c2cc([N+](=O)[O-])ccc2[nH]c2c([N+](=O)[O-])cc([N+](=O)[O-])cc12", "activation": "inactive: -1.11%"}
{"smiles": "COC(=O)c1cc2c(s1)N=C(c1ccccc1)N(C)P2(=O)N1CCOCC1", "note": "(centres undefined)", "activation": "inactive: 0.76%"}
{"smiles": "Cc1ccc(OP(=O)(Nc2ccccn2)Oc2ccc(C)cc2)cc1", "activation": "inactive: -0.21%"}
{"smiles": "CC(=O)NC(SC(=S)N(CC(C)C)CC(C)C)C(Cl)(Cl)Cl", "note": "(centres undefined)", "activation": "inactive: -0.16%"}
{"smiles": "CCC(=O)N1C2C3N(C(=O)CC)C1C1N(C(=O)CC)C(C(N1C(=O)CC)N3C(=O)CC)N2C(=O)CC", "activation": "inactive: 19.3%"}
{"smiles": "CC(C)(C)C(=O)NC(Sc1ccccc1)C(Cl)(Cl)Cl", "note": "(centres undefined)", "activation": "inactive: -0.18%"}
{"smiles": "O=P1(Nc2nc3ccc(Cl)cc3s2)COc2ccccc2O1", "note": "(centres undefined)", "activation": "inactive: -1.98%"}
{"smiles": "CCOc1ccc(C2=NCC(CBr)S2)cc1", "note": "(centres undefined)", "activation": "inactive: -0.02%"}
{"smiles": "CC(=O)Nc1ccc(Oc2c([N+](=O)[O-])cc([N+](=O)[O-])cc2[N+](=O)[O-])cc1", "activation": "inactive: -1.53%"}
{"smiles": "Cc1cccc(OCC(=O)OC2CN3CCC2CC3)c1", "note": "(centres undefined)", "activation": "inactive: 0.06%"}
{"smiles": "COc1cc(C(=O)NCC2(N3CCOCC3)CCCCC2)cc(Cl)c1OC(C)C", "activation": "inactive: 0.35%"}
{"smiles": "COc1cc(C2NCCC3(OCCO3)C2(C)C)cc(OC)c1OC", "note": "(centres undefined)", "activation": "inactive: 2.42%"}
{"smiles": "CCOP(=O)(Nc1cccc2ccccc12)OCC", "activation": "inactive: -0.56%"}
{"smiles": "Cc1ccc(NCCc2c([N+](=O)[O-])cc([N+](=O)[O-])cc2[N+](=O)[O-])cc1", "activation": "inactive: -0.34%"}
{"smiles": "CCOP1(=S)c2c(C)nn(CCC#N)c2N=C(c2ccccc2F)N1C", "note": "(centres undefined)", "activation": "inactive: 2.98%"}
{"smiles": "O=P(Nc1nccs1)(Oc1ccccc1)Oc1ccccc1", "activation": "inactive: -0.34%"}
{"smiles": "O=P(Nc1nccs1)(c1ccccc1)c1nc2ccccc2s1", "note": "(centres undefined)", "activation": "inactive: -2.53%"}
{"smiles": "O=[N+]([O-])c1ccc2c(c1)nnn2O", "activation": "inactive: -16.2%"}
{"smiles": "CCOP1(=S)c2c(C)nn(CCC#N)c2N=C(c2ccc(F)cc2)N1C", "note": "(centres undefined)", "activation": "inactive: 1.65%"}
{"smiles": "CN(C)C1(CNC(=O)c2ccc(S(C)(=O)=O)cc2)CCCCC1", "activation": "inactive: 0.28%"}
{"smiles": "Cc1nn(-c2ccccc2)c2c1P(=O)(N1CCOCC1)N(C)C(c1ccccc1)=N2", "note": "(centres undefined)", "activation": "inactive: 0.99%"}
{"smiles": "CC1CCC(C(C)C)C(OP(=O)(Nc2ccccn2)c2ccccc2)C1", "note": "(centres undefined)", "activation": "inactive: -0.45%"}
{"smiles": "Cc1ccc(OCC(=O)OC2CN3CCC2CC3)cc1", "note": "(centres undefined)", "activation": "inactive: 1.08%"}
{"smiles": "O=P1(Nc2ccc(Br)cn2)COc2ccccc2OC1", "activation": "inactive: -0.68%"}
{"smiles": "O=P1(Nc2ncccn2)COc2ccccc2OC1", "activation": "inactive: -0.64%"}
{"smiles": "Clc1n[nH]nc1-c1nn[nH][15n]1", "activation": "inactive: -0.00911%"}
{"smiles": "O=P1(Nc2ccccn2)COc2ccccc2OC1", "activation": "inactive: 0.09%"}
{"smiles": "CC1(CBr)Cn2c(nc3ccccc3c2=O)S1", "note": "(centres undefined)", "activation": "inactive: 0.68%"}
{"smiles": "CC(C)/C=N\\N=C(\\N)N[N+](=O)[O-]", "activation": "inactive: -0.72%"}
{"smiles": "O=C(COc1ccccc1)OC1CN2CCC1CC2", "note": "(centres undefined)", "activation": "inactive: -0.74%"}
{"smiles": "COP1(=S)c2c(C)nn(CCC#N)c2N=C(c2ccc(F)cc2)N1C", "note": "(centres undefined)", "activation": "inactive: 2.94%"}
{"smiles": "CCC(C)N(CC(C)C)C(=S)SC(NC(C)=O)C(Cl)(Cl)Cl", "note": "(centres undefined)", "activation": "inactive: 0.07%"}
{"smiles": "Cc1cc(SC(NC(=O)c2ccccc2)C(Cl)(Cl)Cl)nc(C(C)C)n1", "note": "(centres undefined)", "activation": "inactive: 0.46%"}
{"smiles": "O=P(Nc1ccccn1)(c1cccc2ccccc12)c1cccc2ccccc12", "activation": "inactive: -0.08%"}
{"smiles": "Cc1cc(SC(NC=O)C(Cl)(Cl)Cl)ncn1", "note": "(centres undefined)", "activation": "inactive: -0.33%"}
{"smiles": "Cc1ccc2nc3c(c(C)c2c1)CC(C(Cl)Cl)S3", "note": "(centres undefined)", "activation": "inactive: 0.4%"}
{"smiles": "CC(C)NC(=O)NP(=O)(Oc1ccccc1)Oc1ccccc1", "activation": "inactive: 0.47%"}
{"smiles": "CCN(CC)C(=S)SC(NC=O)C(Cl)(Cl)Cl", "note": "(centres undefined)", "activation": "inactive: -7.93%"}
{"smiles": "O=[N+]([O-])c1cc([N+](=O)[O-])c(-c2ccn[nH]2)s1", "activation": "inactive: 0.03%"}
{"smiles": "ClCCSc1nnc(-c2cccnc2)o1", "activation": "inactive: -2.96%"}
{"smiles": "COc1ccc2nc(NP(=O)(c3ccccc3)c3ccccc3)sc2c1", "activation": "inactive: -0.22%"}
{"smiles": "O=C(OC1CN2CCC1CC2)C12CC3CC(CC(C3)C1)C2", "note": "(centres undefined)", "activation": "inactive: -0.83%"}
{"smiles": "Cc1cc(=O)[nH]c(N[N+](=O)[O-])n1", "activation": "inactive: 0.23%"}
{"smiles": "Cc1c2c(nc3ccccc13)SC(C(Cl)Cl)C2", "note": "(centres undefined)", "activation": "inactive: -0.09%"}
{"smiles": "COc1ccc(N/C(=N/P(=O)(N2CCOCC2)N2CCOCC2)N2CCOCC2)cc1", "activation": "inactive: 0.03%"}
